What was measured:
Type in all cases: in vivo
animals [1] = test: Protection against lethality: hypoxia-hypobara (decompression), survival time; details: dose 40 mg/kg
Excerpt: (§1) It is known that the nootropic drugs, as Piracetam, as well as the phenobarbital or hydantoin have a protection on the survival time of animals.
(§2) In the intention to increase the accuracy, we have a three trials panel in order to study the effect of the new synthetized drugs.

mouse = test: Protection against lethality: quick decapitation, gasping time; details: gasping time after decapitation of mouse; dose 40 mg/kg
Excerpt: as §1, §2
The second trial is the quick decapitation of mouse. The head has a typical mandibular movement, known as gasping, as searching the breathing air. The gasping time is well prolonged by the active- drugs.

animals [2] = test: Protection against lethality: anoxia by CNK, survival time; details: dose 40 mg/kg
Excerpt: as §1, §2
The third trial is by CNK. Obviously CNK kills the animals. Again the »protected« animals live a good number of seconds more than the controls.

CCCC(C)C1(CC)C(=O)NC(=O)NC1=O (stereo not drawn) [Pentobarbital, reference compound]
Active: hypoxia hypobara (animals [1]) | gasping (mouse) | anoxia by CNK (animals [2])
